Measurements from BindingDB's records for doi:10.1021/acs.jmedchem.5b01559 (University of Siena, 2016).
pKi: −log10 of the molar value.

Amino acid sequences for entries named in this document (tags omitted).
UniProt P21554, whole entry: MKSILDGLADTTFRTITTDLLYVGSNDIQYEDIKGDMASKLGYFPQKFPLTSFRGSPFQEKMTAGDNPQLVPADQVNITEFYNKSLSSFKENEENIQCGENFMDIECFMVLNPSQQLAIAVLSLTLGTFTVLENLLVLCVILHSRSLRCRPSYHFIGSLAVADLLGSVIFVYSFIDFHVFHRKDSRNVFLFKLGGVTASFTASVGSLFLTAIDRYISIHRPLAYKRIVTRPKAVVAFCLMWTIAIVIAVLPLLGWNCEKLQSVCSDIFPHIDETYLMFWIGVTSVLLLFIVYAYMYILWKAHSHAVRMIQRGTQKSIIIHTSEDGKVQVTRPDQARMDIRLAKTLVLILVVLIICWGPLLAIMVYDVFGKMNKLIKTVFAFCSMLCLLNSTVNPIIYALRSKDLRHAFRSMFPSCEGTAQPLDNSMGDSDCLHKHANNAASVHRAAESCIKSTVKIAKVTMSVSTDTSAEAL
UniProt P34972, whole entry: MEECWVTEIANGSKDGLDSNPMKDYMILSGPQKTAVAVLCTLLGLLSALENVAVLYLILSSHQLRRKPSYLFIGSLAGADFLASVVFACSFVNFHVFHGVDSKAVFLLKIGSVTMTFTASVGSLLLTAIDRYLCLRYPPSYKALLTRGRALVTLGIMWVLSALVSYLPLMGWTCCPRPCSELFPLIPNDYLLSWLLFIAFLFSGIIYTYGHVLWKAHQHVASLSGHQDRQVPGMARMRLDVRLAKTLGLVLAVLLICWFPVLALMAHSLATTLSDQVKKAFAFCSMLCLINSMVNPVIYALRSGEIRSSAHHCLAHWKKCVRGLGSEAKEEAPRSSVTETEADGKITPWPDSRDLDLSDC

Legend:
Cannabinoid receptor 1 = Cannabinoid receptor 1 (Homo sapiens, UniProt P21554)
Cannabinoid receptor 2 = Cannabinoid receptor 2 (Homo sapiens, UniProt P34972); experiment: Displacement of [3H]-CP-55940 from human recombinant CB2 receptor expressed in HEK293 cells after 90 mins by Competition binding assay

Compound	pKi (Cannabinoid receptor 1)	pKi (Cannabinoid receptor 2)
CCCCCn1c(=O)c(C(=O)NC23CC4CC(CC(C4)C2)C3)c(O)c2ccccc21	6.97	9.01
CCCCCn1cc(C(=O)NC23CC4CC(CC(C4)C2)C3)c(=O)c2cc(C(C)C)c(F)cc21	< 5.00	8.12
CCCCCn1c(=O)c(C(=O)NC23CC4CC(CC(C4)C2)C3)cc2cc(C(C)C)ccc21	7.96	9.59
CCCCCn1c2c(c(O)c(C(=O)NC34CC5CC(CC(C5)C3)C4)c1=O)CCCC2	8.06	9.43
